Consider 23 molecules from US20230322822A1, “ARYL PHOSPHOROUS OXIDE COMPOUNDS AND USE THEREOF” (Chengdu Di'ao Jiuhong Pharmaceutical Factory, priority 2020, published 2023).

Sequences of proteins named here, by UniProt entry; tags and fusion partners are left off. Residues count along the entry.
UniProt P00533, 25-1210 T790M/C797S limits assumed: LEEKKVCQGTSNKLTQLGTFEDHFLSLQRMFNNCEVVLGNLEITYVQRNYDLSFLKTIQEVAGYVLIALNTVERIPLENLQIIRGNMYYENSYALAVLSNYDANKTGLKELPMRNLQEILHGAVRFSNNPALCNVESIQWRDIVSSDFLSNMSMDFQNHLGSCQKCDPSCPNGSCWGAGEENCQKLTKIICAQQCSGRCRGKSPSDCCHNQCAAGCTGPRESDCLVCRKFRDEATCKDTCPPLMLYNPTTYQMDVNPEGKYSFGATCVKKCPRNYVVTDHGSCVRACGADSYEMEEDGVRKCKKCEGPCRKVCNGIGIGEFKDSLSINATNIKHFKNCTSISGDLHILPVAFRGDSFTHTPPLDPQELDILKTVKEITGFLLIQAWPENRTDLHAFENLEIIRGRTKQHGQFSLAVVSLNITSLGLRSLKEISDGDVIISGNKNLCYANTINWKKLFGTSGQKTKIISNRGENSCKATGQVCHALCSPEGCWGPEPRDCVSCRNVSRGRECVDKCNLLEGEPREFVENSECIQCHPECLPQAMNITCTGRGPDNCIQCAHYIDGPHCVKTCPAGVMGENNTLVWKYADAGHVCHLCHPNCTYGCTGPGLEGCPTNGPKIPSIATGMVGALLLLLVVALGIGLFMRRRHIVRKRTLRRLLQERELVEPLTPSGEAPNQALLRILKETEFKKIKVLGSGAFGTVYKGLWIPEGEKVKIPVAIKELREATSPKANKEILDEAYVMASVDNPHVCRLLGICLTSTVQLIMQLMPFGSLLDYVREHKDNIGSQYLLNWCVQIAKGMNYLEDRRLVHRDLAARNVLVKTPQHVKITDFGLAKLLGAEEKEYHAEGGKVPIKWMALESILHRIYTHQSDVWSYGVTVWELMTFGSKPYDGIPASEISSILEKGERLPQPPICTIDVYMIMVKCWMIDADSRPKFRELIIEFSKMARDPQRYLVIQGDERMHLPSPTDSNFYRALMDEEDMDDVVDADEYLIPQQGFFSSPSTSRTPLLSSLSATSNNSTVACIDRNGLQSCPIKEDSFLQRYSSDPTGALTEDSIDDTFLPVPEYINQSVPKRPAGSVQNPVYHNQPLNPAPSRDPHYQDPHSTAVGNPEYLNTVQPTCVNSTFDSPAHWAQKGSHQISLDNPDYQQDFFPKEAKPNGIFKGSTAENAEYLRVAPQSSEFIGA
UniProt P00533, 25-1210 C797S limits assumed: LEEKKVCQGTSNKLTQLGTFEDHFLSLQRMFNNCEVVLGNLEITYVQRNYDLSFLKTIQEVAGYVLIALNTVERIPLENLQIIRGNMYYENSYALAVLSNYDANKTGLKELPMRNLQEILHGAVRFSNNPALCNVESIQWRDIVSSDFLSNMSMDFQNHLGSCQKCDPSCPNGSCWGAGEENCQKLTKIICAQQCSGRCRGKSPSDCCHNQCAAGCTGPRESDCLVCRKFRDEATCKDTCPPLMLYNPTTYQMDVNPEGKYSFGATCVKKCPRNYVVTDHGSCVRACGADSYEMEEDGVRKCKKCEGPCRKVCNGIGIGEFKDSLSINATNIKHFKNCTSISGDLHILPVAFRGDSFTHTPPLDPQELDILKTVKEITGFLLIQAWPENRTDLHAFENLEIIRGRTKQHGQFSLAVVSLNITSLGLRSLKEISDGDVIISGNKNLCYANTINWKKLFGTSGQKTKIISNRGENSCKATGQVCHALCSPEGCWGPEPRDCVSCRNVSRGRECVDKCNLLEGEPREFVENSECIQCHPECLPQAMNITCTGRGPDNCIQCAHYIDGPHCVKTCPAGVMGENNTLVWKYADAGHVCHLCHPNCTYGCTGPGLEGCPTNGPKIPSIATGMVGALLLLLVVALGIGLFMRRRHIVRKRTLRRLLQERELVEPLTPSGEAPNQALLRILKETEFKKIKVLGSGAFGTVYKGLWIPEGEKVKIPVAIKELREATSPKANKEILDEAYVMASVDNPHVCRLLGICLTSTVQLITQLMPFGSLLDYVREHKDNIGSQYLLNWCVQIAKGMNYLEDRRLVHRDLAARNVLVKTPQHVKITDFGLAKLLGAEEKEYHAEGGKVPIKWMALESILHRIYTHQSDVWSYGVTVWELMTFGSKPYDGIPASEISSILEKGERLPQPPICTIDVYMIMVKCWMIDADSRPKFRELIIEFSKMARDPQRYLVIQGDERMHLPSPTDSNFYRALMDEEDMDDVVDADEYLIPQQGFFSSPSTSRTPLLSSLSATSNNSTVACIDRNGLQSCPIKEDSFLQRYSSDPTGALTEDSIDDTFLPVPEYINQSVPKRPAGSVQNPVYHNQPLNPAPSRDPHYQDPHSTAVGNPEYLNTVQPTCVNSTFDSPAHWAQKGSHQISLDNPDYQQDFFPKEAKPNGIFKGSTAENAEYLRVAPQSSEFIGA

One assay addresses EGFR-C797S/T790M/Del19 (Homo sapiens, UniProt P00533, C797S/T790M, form not given). Kind of assay: Enzymatic activity test (ADP-Glo) EGFR-C797S/T790M/Del19. It is filed as biochemical. Particulars: kinase.
For another assay, the target named is EGFR-C797S/Del19 (Homo sapiens, UniProt P00533, C797S, form not given). Kind of assay: Enzymatic activity test (ADP-Glo) EGFR-C797S/Del19. It is filed as biochemical. Particulars: kinase.
The test system of assay [1] is Ba/F3 cells expressing EGFR-C797S/L858R. Description: Cell anti-proliferation test 1 (CTG), BaF3 EGFR-C797S/L858R. Particulars: Mus musculus, BaF3, 72 h, read-out: EGFR-C797S/L858R IC50.
In assay [2] the test system is Ba/F3 cells expressing EGFR-C797S/Del19. Kind of assay: Cell anti-proliferation test 1 (CTG), BaF3 EGFR-C797S/Del19. Particulars: Mus musculus, BaF3, 72 h, read-out: EGFR-C797S-Del19 IC50.

A value given as a limit tells only on which side of the number the result lay.

On to `COc1cc(N2CCC(N3CCN(C)CC3)CC2)c(C)cc1Nc1ncc(Cl)c(Nc2ccc(C)cc2P(C)(C)=O)n1` [Compound 1], for which the IC50 against EGFR-C797S/T790M/Del19 was 10.8 nM; against EGFR-C797S/Del19, 19.8 nM; in assay [1], 90 nM; in assay [2], 39.9 nM.

`COc1cc(N2CCC(N3CCN(C)CC3)CC2)c(C)cc1Nc1ncc(Br)c(Nc2ccc(C)cc2P(C)(C)=O)n1` [Compound 2]: the values for the IC50 against EGFR-C797S/T790M/Del19 and at EGFR-C797S/Del19 were 4.2 nM and 13.8 nM, respectively.

Turning to `COc1cc(N2CCC(N3CCN(C)CC3)CC2)c(C)cc1Nc1ncc(C)c(Nc2ccc(C)cc2P(C)(C)=O)n1` [Compound 4], the IC50 in assay [2] is 80.6 nM.

On to `COc1cc(N2CCC(N(C)C)CC2)c(C)cc1Nc1ncc(Cl)c(Nc2ccc(C)cc2P(C)(C)=O)n1` [Compound 5], for which the IC50 on EGFR-C797S/T790M/Del19 amounted to 6.9 nM; against EGFR-C797S/Del19 it was 73.7 nM; in assay [1] it was 90.6 nM; in assay [2], 50 nM.

On to `COc1cc(N2CCC(N(C)C)CC2)c(C)cc1Nc1ncc(Br)c(Nc2ccc(C)cc2P(C)(C)=O)n1` [Compound 6], for which the IC50 on EGFR-C797S/T790M/Del19 stood at 6.6 nM; against EGFR-C797S/Del19, 33.8 nM; in assay [1] it was 37.1 nM; in assay [2] it was 51 nM.

With `COc1cc(N2CCC(N3CCN(C)CC3)CC2)c(C)cc1Nc1ncc(Br)c(Nc2cc(C)ccc2P(C)(C)=O)n1` [Compound 9], the IC50 against EGFR-C797S/T790M/Del19 is 26.4 nM; at EGFR-C797S/Del19, 41.9 nM.

As to `COc1cc(N2CCC(N3CCN(C)CC3)CC2)c(C)cc1Nc1ncc(Br)c(Nc2ccc(F)cc2P(C)(C)=O)n1` [Compound 11], the IC50 is 4.4 nM at EGFR-C797S/T790M/Del19, 10.7 nM at EGFR-C797S/Del19, 24.1 nM in assay [1] and 66.1 nM in assay [2].

For `CCc1cc(Nc2ncc(Br)c(Nc3ccc(C)cc3P(C)(C)=O)n2)c(OC)cc1N1CCC(N2CCN(C)CC2)CC1` [Compound 12], the IC50 against EGFR-C797S/T790M/Del19 is 7.5 nM; on EGFR-C797S/Del19, 9.8 nM; in assay [1], 113 nM; in assay [2] it was 29.3 nM.

Turning to `COc1cc(N2CCC(N3CCN(C)CC3)CC2)c(C(C)C)cc1Nc1ncc(Br)c(Nc2ccc(C)cc2P(C)(C)=O)n1` [Compound 13], the IC50 in assay [2] worked out at 60.1 nM.

Regarding `COc1cc(N2CCC(N3CCN(C)CC3)CC2)c(Cl)cc1Nc1ncc(Br)c(Nc2ccc(C)cc2P(C)(C)=O)n1` [Compound 14], the IC50 came to 6.6 nM on EGFR-C797S/T790M/Del19, 5.7 nM against EGFR-C797S/Del19, 31.7 nM in assay [1] and 43.9 nM in assay [2].

Turning to `Cc1ccc(Nc2nc(Nc3cc(C)c(N4CCC(N5CCN(C)CC5)CC4)cc3OCC(F)(F)F)ncc2Br)c(P(C)(C)=O)c1` [Compound 23], in assay [2], the IC50 was 79.6 nM.

As for `Cc1ccc(Nc2nc(Nc3cc(C)c(N4CCC(N5CCN(C)CC5)CC4)cc3OC(F)F)ncc2Br)c(P(C)(C)=O)c1` [Compound 24], the IC50 is 24.5 nM at EGFR-C797S/T790M/Del19, 41.6 nM against EGFR-C797S/Del19 and 41.6 nM in assay [2].

In the case of `COc1cc(N2CCOCC2)c(C)cc1Nc1ncc(Br)c(Nc2ccc(C)cc2P(C)(C)=O)n1` [Compound 28], the IC50 in assay [2] stood at 85.2 nM.

On to `COc1cc(N2CCN(C)CC2)c(C)cc1Nc1ncc(Br)c(Nc2ccc(C)cc2P(C)(C)=O)n1` [Compound 29], for which, in assay [2], the IC50 amounted to 57.8 nM.

Consider `COc1cc(N2CCC(N3CCOCC3)CC2)c(C)cc1Nc1ncc(Br)c(Nc2ccc(C)cc2P(C)(C)=O)n1` [Compound 30], for which the IC50 in assay [2] came to 55.6 nM.

For `COc1cc(N2CCC(N3CCN(C)CC3)CC2)c(Br)cc1Nc1ncc(Br)c(Nc2ccc(C)cc2P(C)(C)=O)n1` [Compound 32], the IC50 turned out to be 9.7 nM against EGFR-C797S/T790M/Del19, 10.5 nM against EGFR-C797S/Del19, 43.8 nM in assay [1] and 51.6 nM in assay [2].

`COc1cc(N2CCC(N3CCN(C)CC3)CC2)c(C)cc1Nc1ncc(Br)c(Nc2ccc(Cl)cc2P(C)(C)=O)n1` [Compound 33]: the IC50 in assay [1] amounted to 84.9 nM.

For the molecule `COc1cc(N2CCC(N3CCN(C)CC3)CC2)c(Cl)cc1Nc1ncc(Br)c(Nc2ccc(F)cc2P(C)(C)=O)n1` [Compound 35], in assay [1], the IC50 worked out at 180 nM.

Take `COc1cc(N2CCC(N3CCN(C)CC3)CC2)c(C)cc1Nc1ncc(Br)c(Nc2ccc(C(C)C)cc2P(C)(C)=O)n1` [Compound 36]: the IC50 in assay [1] was 133 nM.

In the case of `CCc1cc(Nc2ncc(Br)c(Nc3ccc(C(C)C)cc3P(C)(C)=O)n2)c(OC)cc1N1CCC(N2CCN(C)CC2)CC1` [Compound 37], the IC50 in assay [1] turned out to be 103 nM.

For `COc1cc(N2CCC(N3CCN(C)CC3)CC2)c(C)cc1Nc1ncc(Cl)c(Nc2cccc(C)c2P(C)(C)=O)n1` [Control compound 1, reference compound], the IC50 is 161 nM against EGFR-C797S/T790M/Del19 and above 250 nM against EGFR-C797S/Del19.

In the case of `COc1cc(N2CCC(N3CCN(C)CC3)CC2)c(C)cc1Nc1ncc(Cl)c(Nc2ccccc2P(C)(C)=O)n1` [Control compound 2, reference compound], the IC50 against EGFR-C797S/T790M/Del19 and on EGFR-C797S/Del19 was above 250 nM in each case.

Take `COc1cc(N2CCC(N3CCN(C)CC3)CC2)ccc1Nc1ncc(Cl)c(Nc2ccc(C)cc2P(C)(C)=O)n1` [Control compound 3, reference compound]: the IC50 against EGFR-C797S/T790M/Del19 and against EGFR-C797S/Del19 was above 250 nM each time.
